Results on 51 compounds are retold here after PubChem BioAssay AID940 (Emory University Molecular Libraries Screening Center, 2007).

The chains behind the UniProt entries cited, without tags or fusion partners. Where a name states a change or a piece, a line headed by the entry shows the natural chain unless it says otherwise.
UniProt P43116: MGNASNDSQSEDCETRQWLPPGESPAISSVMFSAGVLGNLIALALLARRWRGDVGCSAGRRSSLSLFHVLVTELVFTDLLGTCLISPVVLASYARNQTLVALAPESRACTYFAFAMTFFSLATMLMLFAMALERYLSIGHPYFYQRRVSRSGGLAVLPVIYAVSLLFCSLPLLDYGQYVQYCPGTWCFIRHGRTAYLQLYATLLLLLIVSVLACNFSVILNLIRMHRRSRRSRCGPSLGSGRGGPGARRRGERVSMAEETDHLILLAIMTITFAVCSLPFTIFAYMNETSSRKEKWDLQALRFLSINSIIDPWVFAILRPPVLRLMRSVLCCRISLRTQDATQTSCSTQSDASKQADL

Structures are written as SMILES. Where “and” joins values, the source holds several entries; their conditions need not be identical. Equal values may be shown once. The entries are a selection whose mix differs from that of the whole data set. Calls of active or inactive are those of the source.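 The calls were made as follows: active = compounds whose cAMP rise, as percent of the full-agonist control response, exceeds 60; inactive = the rest.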

The test addresses Prostaglandin E2 receptor EP2 subtype (Homo sapiens) (UniProt P43116). Kind of test: modulation of human EP2 prostaglandin signaling – cell-based, HTRF cAMP, PGE2 stimulation, primary screen (AID 940).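 Also: rat C6 glioma line stably carrying human EP2 under a CMV promoter; the protocol text gives 20 µM as final concentration; 100% = response of wells given 1 µM PGE2.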 The following applies: EP2-expressing cells, cAMP HTRF FRET, PGE2 co-stimulation; at 25 µM; stronger effect = higher value. Background: In TR-FRET formats the signal depends on donor and acceptor labels being close together.
Regarding `Cc1c2non([O-])c-2c(C)[n+](=O)[n+]1[O-]`, the induction is inactive: -36.8%.

On to `Oc1ccccc1CNc1ccccn1`, for which the induction is inactive: -8.87%.

Regarding `NCC[C@@H](N)CSP(=O)(O)O`, the induction is inactive: 9.65%.

As for `CC(=O)Nc1ccc([As](=O)(O)O)cc1`, the induction was inactive: -15.3%.

Turning to `O=C(O)c1ccccc1[As](=O)(O)O`, the induction was inactive: 30.1%.

For the compound `O=P(Nc1nc2ccc(Cl)cc2s1)(c1ccccc1)c1ccccc1`, the induction was inactive: -11.2%.

With `Cc1ccc(NP(=O)(Oc2ccccc2F)Oc2ccccc2F)nc1`, the induction is inactive: 3.91%.

Turning to `CN(C(=O)Cc1ccc(Cl)c(Cl)c1)[C@H]1CCCC[C@@H]1N1CCCC1`, the induction is inactive: -16.4% and inactive: 0.58%.

Consider `Cc1cc(SC(NC(=O)c2ccc(F)cc2)C(Cl)(Cl)Cl)ncn1` (stereo unspecified), for which the induction was inactive: 43.7%.

On to `CCOP(=O)(Nc1ccccc1)OCC`, for which the induction is inactive: 16.3% and inactive: 6.02%.

On to `[N-]=[N+]=NCC(O)CN=[N+]=[N-]` (stereo unspecified), for which the induction was inactive: 33.8%.

Consider `CCN(N=Nc1nonc1N)c1nonc1N`, for which the induction is inactive: -5.22%.

Turning to `C(Cc1nn[nH]n1)c1nn[nH]n1`, the induction was inactive: 21.7%.

Take `Nc1cccc2ccc([As](=O)(O)O)cc12`: the induction was inactive: -36.2%.

Take `CCNC(=S)/N=C(\N)N[N+](=O)[O-]`: the induction was inactive: 17.4%.

Turning to `O=C(NC1CCS(=O)(=O)C1)NP(=S)(Oc1ccccc1)Oc1ccccc1` (stereo unspecified), the induction is inactive: 29.8%.

Take `CCOC(=O)NC(Sc1ccccc1)C(Cl)(Cl)Cl` (stereo unspecified): the induction is inactive: -2.25%.

For the compound `Cc1ccc(NP(=O)(Oc2cccc(C)c2)Oc2cccc(C)c2)nc1`, the induction is inactive: -32.8%.

For the compound `c1ccc(-c2nn[nH]n2)c(-c2nn[nH]n2)c1`, the induction is inactive: -0.01%.

In the case of `O=c1[nH]cc(S(=O)(=O)F)c(=O)[nH]1`, the induction is inactive: 7.59%.

As for `Cc1ccc(OP(=O)(Nc2ccccn2)Oc2ccc(C)cc2)cc1`, the induction was inactive: -49.8%.

Turning to `CC(=O)NC(SC(=S)N(CC(C)C)CC(C)C)C(Cl)(Cl)Cl` (stereo unspecified), the induction was inactive: 47.9%.

Take `COC(=O)c1cc2c(s1)N=C(c1ccccc1)N(C)P2(=O)N1CCOCC1` (stereo unspecified): the induction is inactive: 18.7%.

On to `CCC(=O)N1C2C3N(C(=O)CC)C1C1N(C(=O)CC)C(C(N1C(=O)CC)N3C(=O)CC)N2C(=O)CC`, for which the induction is inactive: 8.44%.

With `CN(C(=O)Cc1ccc(Cl)c(Cl)c1)[C@@H]1CCCC[C@@H]1N1CCCC1`, the induction was inactive: 22%.

As to `O=c1c2cc([N+](=O)[O-])ccc2[nH]c2c([N+](=O)[O-])cc([N+](=O)[O-])cc12`, the induction was inactive: -77.1%.

Regarding `CN(C)C(=O)Oc1noc2ccccc12`, the induction was inactive: 4.48%.

Regarding `Cc1ccccc1OP(=O)(Nc1ccccn1)Oc1ccccc1C`, the induction is inactive: 26.1%.

Take `CCOc1ccc(C2=NCC(CBr)S2)cc1` (stereo unspecified): the induction is inactive: -32.3%.

Turning to `O=P1(Nc2nc3ccc(Cl)cc3s2)COc2ccccc2O1` (stereo unspecified), the induction was inactive: -36.4%.

For the compound `CC(C)(C)C(=O)NC(Sc1ccccc1)C(Cl)(Cl)Cl` (stereo unspecified), the induction is inactive: 39.1%.

For the compound `C[C@H]1OP(=O)(Oc2ccccc2)C[C@@H]2O[C@@H]21` (stereo partly specified), the induction was inactive: -5.67%.

With `C[C@@H]1C=CCP(=O)(Oc2ccccc2)O1` (stereo partly specified), the induction is inactive: 10%.

As to `CC(=O)Nc1ccc(Oc2c([N+](=O)[O-])cc([N+](=O)[O-])cc2[N+](=O)[O-])cc1`, the induction is inactive: 12.1%.

`CC(=O)Nc1ccc([As](=O)(O)O)c(O)c1`: the induction was inactive: -11.8%.

For `CC(C)C(=O)NC(Sc1ccccc1)C(Cl)(Cl)Cl` (stereo unspecified), the induction was inactive: 23.5%.

As for `O=P(Nc1nccs1)(c1ccccc1)c1ccccc1`, the induction was inactive: -2.07%.

Regarding `c1nnnn1CCn1cnnn1`, the induction was inactive: -4.13%.

For `CN1CCC[C@H](OC(=O)C(c2ccccc2)c2ccccc2)C1`, the induction is inactive: 18.1%.

Regarding `COc1ccc(/C=C2/C(=O)NC(=O)N(Cc3ccco3)C2=O)c(OC)c1`, the induction was inactive: -70.2%.

Regarding `C[C@@H](O)COc1ccc([As](=O)(O)O)cc1N`, the induction was inactive: 25.9%.

Regarding `O=P(Nc1ccccn1)(c1ccc(Br)cc1)c1ccc(Br)cc1`, the induction is inactive: 0.42%.

For `C[C@H]1OP(=O)(Oc2ccccc2)[C@H](O)[C@H](O)[C@H]1N=[N+]=[N-]` (stereo partly specified), the induction was inactive: -8.25%.

In the case of `O=P(Nc1nc2ccccc2s1)(c1ccccc1)c1ccccc1`, the induction was inactive: -30.5%.

On to `[N-]=[N+]=Nc1ccc([As](=O)(O)O)cc1`, for which the induction was inactive: 23.2%.

As for `O=[N+]([O-])c1ncn(CCn2cnc([N+](=O)[O-])n2)n1`, the induction was inactive: 18.6%.

For `CC(=O)NC(SC(=S)N(C)C)C(Cl)(Cl)Cl` (stereo unspecified), the induction is inactive: 29.2%.

Take `O=[As](O)(c1ccccc1)c1ccc(O)cc1`: the induction is inactive: -31.7%.

As to `C(Cc1nn[nH]n1)Cc1nn[nH]n1`, the induction is inactive: 41.3%.

With `Nc1ccc([As](=O)(O)c2ccc([N+](=O)[O-])cc2)cc1`, the induction is inactive: 19.8%.

Regarding `O=C(OC1CN2CCC1CC2)c1cccc(Cl)c1` (stereo unspecified), the induction is inactive: 20.1%.
